Measurements: patent publication US20260184748A1 (University of Pennsylvania, published 2026)

Biological target: T1, F2RL3 (UniProt Q96RI0 18-385, limits assumed)
T1 sequence (looked up): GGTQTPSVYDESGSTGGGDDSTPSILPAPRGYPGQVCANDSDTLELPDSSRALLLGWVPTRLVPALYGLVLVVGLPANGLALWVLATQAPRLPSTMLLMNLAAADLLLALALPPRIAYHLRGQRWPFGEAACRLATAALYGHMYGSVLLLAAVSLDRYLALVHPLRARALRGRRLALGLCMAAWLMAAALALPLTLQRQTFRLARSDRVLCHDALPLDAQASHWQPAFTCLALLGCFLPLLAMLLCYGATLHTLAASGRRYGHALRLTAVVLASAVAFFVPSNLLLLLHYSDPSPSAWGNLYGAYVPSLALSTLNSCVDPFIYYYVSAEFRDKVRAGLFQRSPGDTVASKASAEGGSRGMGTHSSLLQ
Assay: cell-based or functional assay

AYPGKF (C-terminal -NH2) [AYPGKF-NH2]
EC50 (RC50), arrestin, agonist mode: 2280 nM
